# Yeast mating assay 2: variants of the scFv Ab-95

Source: Engelhart et al. 2022 (doi:10.1038/s41597-022-01779-4), MIT Lincoln Laboratory and A-Alpha Bio; data file from the FLAb repository.

Target: peptide PDVDLGDISGINAS, taken from heptad repeat 2 (HR2) of SARS-CoV-2 spike.

The variants keep the heavy chain, the linker and the frameworks of Ab-95 (scFv order VH, the linker GGGGSGGGGSGGGGS, VL).
VH: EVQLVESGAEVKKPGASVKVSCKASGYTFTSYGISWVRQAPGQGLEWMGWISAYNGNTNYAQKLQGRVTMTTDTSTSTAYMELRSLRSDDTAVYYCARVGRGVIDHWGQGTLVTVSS
VL: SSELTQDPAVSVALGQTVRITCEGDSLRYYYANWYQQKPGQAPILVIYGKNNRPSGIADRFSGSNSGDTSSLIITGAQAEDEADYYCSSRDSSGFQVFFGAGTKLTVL

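Phage display of a naive human antibody library on the peptide gave the parent. In library AAYL52, one, two or three CDR residues were substituted; doubles and triples were drawn at random. The assay is AlphaSeq: two haploid yeast populations carry antibody and antigen on their surface. Binding brings cells together so that they mate, and sequencing counts the barcode pairs among the diploids. Read counts were normalised to the haploid input and turned into Kd by a linear fit to BCL2-family pairs of known affinity, for each replicate. Each pool was mated in three replicate cultures.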

Variants are written as CDR1, CDR2 and CDR3 of the light chain (limits as in the source). Parent: EGDSLRYYYAN, GKNNRPS, SSRDSSGFQVF. Numbers give log10(Kd / nM), so 0 is 1 nM and 3 is 1 µM. Smaller is tighter. A pair that was not seen in that replicate is written "n.d."; this usually means weak binding, but a binder can also be missed.

| # | CDR-L1 | CDR-L2 | CDR-L3 | log10 Kd, replicates | empty controls |
|---|---|---|---|---|---|
| 1 | EIDSLRYYYAN | GKHNRPS | KSRDSSGFQVF | n.d. / n.d. / n.d. | 1/9 (4.63) |
| 2 | TGDSLRYYYAN | NKNYRPS | SSRDSSGFQVF | 2.96 / 2.92 / 3.74 | 1/9 (4.43) |
| 3 | EGDSYRYYYAN | GKNWRPK | SSRDSSGFQVF | n.d. / n.d. / n.d. | 1/9 (3.60) |
| 4 | EGDLLRYYMAN | GKNNRPS | SSRDSSDFQVF | 3.97 / n.d. / 3.93 | 1/9 (4.33) |
| 5 | EGDSLRYYYAN | GKNERPS | SSRDSSRIQVF | 2.38 / 2.43 / 2.40 | 1/9 (3.44) |
| 6 | EGDSLRYYYAN | GKNNKPS | NSKDSSGFQVF | 2.67 / 3.13 / 3.95 | 1/9 (3.93) |
| 7 | ENDSLRYYYAN | QKNNRPS | SSRDSSGFQVF | 5.41 / 5.54 / 3.48 | 2/9 (4.60) |
| 8 | EGDSLRYMYAN | GTNNRPS | MSRDSSGFQVF | 1.39 / 1.24 / 0.87 | 1/9 (5.65) |
| 9 | EGDSLRNYYAN | GKNNRPS | SSHDPSGFQVF | 3.55 / 2.58 / 3.19 | 4/9 (4.77) |
| 10 | FGDSLRYYYAW | GKNNRPS | SPRDSSGFQVF | 2.94 / 3.20 / n.d. | 4/9 (3.41) |
| 11 | EGDSLRYYKAN | GKNNRPD | SSIDSSGFQVF | 2.46 / 1.85 / 2.38 | 0/9 |
| 12 | EGDSLRYYYQN | LKNNDPS | SSRDSSGFQVF | 3.68 / n.d. / 4.06 | 4/9 (4.38) |
| 13 | EGDSLRYYYAN | EKNNRPS | SPRGSSGFQVF | n.d. / n.d. / n.d. | 0/9 |
| 14 | EGDSLRYYYAN | GKNNRPS | SSRPSSGFQPL | 2.41 / 3.05 / 2.21 | 0/9 |
| 15 | EGDSLRYYAAN | GKNNRPS | WSKDSSGFQVF | 2.55 / 2.89 / 2.65 | 4/9 (4.28) |
| 16 | ELDSLRYYYAN | GCNNRPS | CSRDSSGFQVF | n.d. / 4.81 / 2.46 | 2/9 (4.13) |
| 17 | EMDSLRYYVAN | GKNNRCS | SSRDSSGFQVF | n.d. / 4.55 / 3.38 | 1/9 (4.52) |
| 18 | EGDSLRSYYRN | GKNNRPS | SSRDSSGFQVM | n.d. / 4.69 / 3.81 | 2/9 (3.41) |
| 19 | EGDSLDYYYAN | GKNNRPS | SYRYSSGFQVF | 2.24 / 1.76 / 2.29 | 2/9 (3.77) |
| 20 | ESDSLRYYYGN | GKNNRPS | SSRDSSGCQVF | 4.48 / n.d. / n.d. | 1/9 (3.70) |
| 21 | EGDSLRYYYAN | GWNNRPS | SSRDSSGFQVF | 2.92 / 2.62 / 2.25 | 1/9 (3.65) |
| 22 | EGDSDRYYYIN | GKNNRPS | STRDSSGFQVF | 3.11 / 4.47 / 3.22 | 6/9 (3.46) |
| 23 | EGDQLRYYQAN | GKNNRPS | SSRDSSGFVVF | 3.03 / 2.72 / 3.02 | 4/9 (3.37) |
| 24 | EGDSLRYYYAN | GKNNRPK | SRPDSSGFQVF | 4.67 / n.d. / n.d. | 1/9 (3.46) |
| 25 | EGDSFSYYYAN | GKKNRPS | SSRDSSGFQVF | 4.28 / 4.39 / n.d. | 1/9 (3.96) |
| 26 | LGDALRYYYAN | GKNNRPS | SSRDSSGFQVF | 3.48 / 3.07 / 3.30 | 1/9 (5.31) |
| 27 | EGDSLRYFYAN | GKNNRPS | SWRLSSGFQVF | 3.04 / 2.18 / 4.30 | 4/9 (3.73) |
| 28 | EDDSLLYKYAN | GKNNRPS | SSRDSSGFQVF | n.d. / 3.33 / 2.86 | 3/9 (4.38) |
| 29 | ESDSLRYYEAT | GKNNRPS | SSRDSSGFQVF | n.d. / 2.97 / n.d. | 0/9 |
| 30 | EGDSLRYIYAN | GKNNRPS | KSRDSSGFQVF | 2.70 / 3.70 / 3.91 | 1/9 (4.56) |
| 31 | EGDSLLYYYAN | GKNNRPS | SSRDSSGFKVF | 4.07 / 3.72 / 4.04 | 1/9 (3.68) |
| 32 | EGKSLRYYYAN | GKNNRPS | SSGDSSGKQVF | 2.87 / 3.48 / 3.71 | 2/9 (4.78) |
| 33 | EGDSLRYYNQN | GKNNRPS | SARDSSGFQVF | 2.68 / 2.76 / 2.65 | 4/9 (3.58) |
| 34 | EGDSHRYYYAN | GKNNRPS | SMRDSFGFQVF | 4.49 / n.d. / 4.10 | 3/9 (3.61) |
| 35 | SGDSLRYYYAN | GKNNRPS | SSIDSSGFQVF | 3.58 / 4.06 / 3.54 | 1/9 (2.60) |
| 36 | EGDSTRYYYAN | GVNNRPS | SSDDSSGFQVF | n.d. / n.d. / 3.76 | 3/9 (3.33) |
| 37 | EGDSLRNYWAN | EKNNRPS | SSRDSSGFQVF | 3.15 / 2.77 / 2.26 | 7/9 (3.56) |
| 38 | EGDSHRYYYAN | GKNNRAS | SSRDSSGFQYF | n.d. / n.d. / 3.48 | 0/9 |
| 39 | EGDSLRYYYDN | GKNNMPS | SSRDSSGFQVF | n.d. / n.d. / n.d. | 2/9 (4.86) |
| 40 | EGDSLCYYYAN | GKPNRPS | SSRDSSVFQVF | n.d. / n.d. / n.d. | 1/9 (3.57) |
| 41 | LGDSLRYYVAN | GKNNRPS | SSRSSSGFQVF | 2.90 / 2.82 / 2.16 | 2/9 (4.41) |
| 42 | EGDSLRYYYWN | GKNNRPS | SSRDSSGFQVY | n.d. / 5.47 / n.d. | 4/9 (4.20) |
| 43 | EGDSLRYYYAN | FKNYRPS | SSRDSSGFQVP | n.d. / 5.78 / n.d. | 5/9 (4.01) |
| 44 | EGDSLRYAYAN | GDNNRPS | SSNDSSGFQVF | 1.39 / 1.24 / 1.26 | 3/9 (4.95) |
| 45 | EYDSLRYYYAN | GKNNRPV | SSRDSSGFQVF | 3.40 / n.d. / n.d. | 0/9 |
| 46 | EGDSIRYYPAN | GKNNRPS | SSRDSSGFWVF | 1.85 / 2.40 / 1.88 | 4/9 (4.20) |
| 47 | EGPSLYYYYAN | GKNNRPD | SSRDSSGFQVF | 1.99 / 2.08 / 1.41 | 1/9 (3.60) |
| 48 | EGTSLRYYYAN | VKNNRPS | SSRDSSGFWVF | n.d. / 3.94 / 3.51 | 1/9 (3.64) |
| 49 | RGDSLRYYYAN | GKNNRPS | SSRDSSSFQPF | 3.93 / 2.80 / 3.80 | 2/9 (4.62) |

In this assay the parent's reference entry averaged 2.31; its copy inside this library read 2.25. Empty control strains, which show no peptide, gave a signal in 28% of pairings with library AAYL52; the median was 3.91 and 95% of these signals were weaker than 2.90. No background was subtracted. For each scFv, signals with the empty controls are counted beside the result, with their mean in brackets.